Test results from BindingDB's records for US10358436 (University Health Network, 2019).

Sequences of proteins named here, by UniProt entry; tags and fusion partners are left off. Residues count along the entry.
UniProt O00444, 1-391: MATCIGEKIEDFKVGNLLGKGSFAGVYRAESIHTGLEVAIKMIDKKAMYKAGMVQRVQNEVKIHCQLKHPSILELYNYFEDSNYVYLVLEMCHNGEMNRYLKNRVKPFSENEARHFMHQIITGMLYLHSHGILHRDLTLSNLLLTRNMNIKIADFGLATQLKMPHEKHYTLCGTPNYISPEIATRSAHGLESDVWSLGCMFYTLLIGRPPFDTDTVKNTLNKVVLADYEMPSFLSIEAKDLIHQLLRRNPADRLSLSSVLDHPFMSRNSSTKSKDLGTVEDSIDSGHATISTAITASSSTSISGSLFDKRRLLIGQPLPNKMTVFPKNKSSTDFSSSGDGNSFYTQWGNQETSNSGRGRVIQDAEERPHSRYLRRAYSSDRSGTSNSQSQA

Biological target: Serine/threonine-protein kinase PLK4 [1-391] (Homo sapiens, UniProt O00444)
Assay: Inhibition Assay

Work on `O=C1Nc2ccccc2[C@]12CC2c1ccc2c(I)n[nH]c2c1` (stereo partly specified) yielded an IC50 of 550 nM.
